## Ab-14 heavy chain CDR variants: yeast mating affinities

Antigen: PDVDLGDISGINAS, a 14-residue peptide of the SARS-CoV-2 spike HR2 region.

Ab-14 is the parent antibody, in scFv form: VH, then three GGGGS repeats, then VL. The light chain is unchanged in all variants.
VH: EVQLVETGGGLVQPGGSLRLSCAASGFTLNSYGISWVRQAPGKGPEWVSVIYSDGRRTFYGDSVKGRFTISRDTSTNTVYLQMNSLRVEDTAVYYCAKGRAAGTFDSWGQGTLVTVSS
VL: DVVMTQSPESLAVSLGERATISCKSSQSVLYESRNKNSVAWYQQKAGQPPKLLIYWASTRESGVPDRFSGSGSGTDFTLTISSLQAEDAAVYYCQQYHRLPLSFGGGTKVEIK

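Phage display of a naive human antibody library on the peptide gave the parent. The variants were designed computationally from a first round of random CDR variants and then made and measured. Group labels follow the data file (Ctrl: baseline library sampled from a position-specific scoring matrix, with some repeated check sequences; En: ensemble of fine-tuned language models; GP: Gaussian process model; GPLM: also part of the Gaussian process libraries; HC: hill climbing; Gen: genetic algorithm; Gibbs: Gibbs sampling; a sequence that several methods proposed may carry one label only). In AlphaSeq, yeast of one mating type display the scFv and yeast of the other type display the target. After mating in shaken culture at 30 °C for 16 h, diploids were selected and their barcode pairs sequenced. Scores were corrected for input abundance and mapped to Kd with protein pairs of known affinity run in the same pool. Mating was done six times.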

Each variant is given by its three heavy chain CDRs, as the data file delimits them; those of the parent are GFTLNSYGIS, VIYSDGRRTFYGDSVK, GRAAGTFDS.
The read-out is the apparent dissociation constant on a log10 scale (nM): the lower, the stronger.
Averages over replicates are reported, and they cover detected replicates only.
An entry "no signal" has no value in the source: the pair was not observed among the diploids in any replicate. This suggests poor binding but is not conclusive.
Nonspecific signal, from three strains lacking the peptide, appeared in 1% of pairings of all heavy chain designs, centred on 2.08 (5% of these signals below 0.84); values are not corrected for it. The control count says in how many pairings with the empty strains this scFv gave a signal.

| CDR-H1 | CDR-H2 | CDR-H3 | group | log10 Kd (nM), mean | seen in | empty controls |
|---|---|---|---|---|---|---|
| GFSLNSYGIS | VIYSDGRRTAYGDSVK | GREAGTFDS | GPLM_Gen | -0.26 | 6 of 6 | 1 of 18 |
| GFDLNEYGIS | VIYADGIRTFYADSVK | GNLAGTFDS | En_HC | -0.69 | 6 of 6 | 1 of 18 |
| GFTLNNYGIS | VIYSDGRRTFYGDSVK | GRAAVTFDQ | GPLM_HC | no signal | 0 of 6 | 0 of 18 |
| GFDLNEYGIS | VIYADGRRTFYTDSVK | GNAAGTFVV | En_HC | 0.98 | 6 of 6 | 0 of 18 |
| GFSLNEYGIS | VIYSDGRRTFYADWVK | GRTAGTFDS | GPLM_Gen | 0.40 | 6 of 6 | 0 of 18 |
| GFNLNSYGIS | VIYSDGRRTFYGDSVK | GRNAGTFDT | GPLM_Gibbs | 0.74 | 6 of 6 | 0 of 18 |
| GFDLNEYGIS | VIYADGVRTFYTDSVK | GENAGTFDI | En_HC | 0.18 | 6 of 6 | 0 of 18 |
| GFDLNEYGIS | VIYADGVRTAYSDSVK | GNTAGTFDI | En_Gen | 0.01 | 6 of 6 | 0 of 18 |
| GFDLNEYGIS | VIYSDGRRTFYGDSVK | GREAGTFDS | GPLM_Gen | -0.32 | 6 of 6 | 0 of 18 |
| GFDLNSYGIS | VIYSDGRRTFYSDSVK | GRAAVTFDS | GP_HC | no signal | 0 of 6 | 1 of 18 |
| GFELNSYGCS | VIYSDGRRTFYGDSVK | GRLAGTFVS | Ctrl | 2.52 | 1 of 6 | 0 of 18 |
| GFDLNEYGIS | VIYADGQRTAYADSVK | GQVAGTFDL | En_Gen | -0.33 | 6 of 6 | 0 of 18 |
| GFDLKQYGIS | VIYADGMRAGYADNVK | GHWGGKFLV | En_Gibbs | no signal | 0 of 6 | 0 of 18 |
| GFDLDEYGIS | VIYADGMRTAYADSVK | GGNAGTFDQ | En_Gen | 0.41 | 6 of 6 | 0 of 18 |
| GFDLEKYGIS | VIYADGYRSAYASNVK | GGEAGTFHF | En_Gibbs | no signal | 0 of 6 | 0 of 18 |
| GFDLNEYGIS | VIYADGMRTFYADNVK | GEVAGTFIV | En_HC | 2.05 | 3 of 6 | 0 of 18 |
| GFTLNSYGIS | VIYSDGRRTFYGDRVK | GRNMGTGDH | Ctrl | no signal | 0 of 6 | 0 of 18 |
| GFNLNEYGIS | VIYADGMRTFYTDSVK | GETAGTFDF | En_HC | -0.33 | 6 of 6 | 1 of 18 |
| GFNLDEVGIS | VIYADGSRVAYVQNVK | GTVDTVGFV | En_Gibbs | no signal | 0 of 6 | 0 of 18 |
| GFDLNEYGIS | VIYADGRRTAYADNVK | GNVAGTFDI | En_Gen | -0.45 | 6 of 6 | 0 of 18 |
| GFDLNSYGIS | VIYSDGRRTFYGDSVK | GRAALTFDS | Ctrl | 2.36 | 1 of 6 | 0 of 18 |
| GFSLKSYGIS | VIYSDGRRTFYADSVK | GRTAGTFDS | GPLM_Gen | 0.58 | 6 of 6 | 0 of 18 |
| GFDLDEYGIS | VIYADGRRTFYADSVK | GELAGTFDT | En_HC | -0.44 | 6 of 6 | 0 of 18 |
| GFDLNEYGIS | VIYADGMRTFYTDSVK | GNVAGTFDV | En_Gen | -1.05 | 6 of 6 | 0 of 18 |
| GFTLNEYGIS | VIYSDGRRTFYSDRVK | GEAAGTFDS | GP_HC | 0.66 | 5 of 6 | 0 of 18 |
| GFDLNEYGIS | VIYADGVRTAYADSVK | GKAAGTFDS | En_HC | -0.41 | 6 of 6 | 0 of 18 |
| GFMLNSYGIS | VIYSDGRRTFYKDSVK | GQTAGTFDS | GP_Gibbs | 1.10 | 6 of 6 | 0 of 18 |

The remaining entries, values ahead:

| log10 Kd (nM), mean | seen in | empty controls | CDR-H1 | CDR-H2 | CDR-H3 | group |
|---|---|---|---|---|---|---|
| -0.45 | 6 of 6 | 0 of 18 | GFTIGEYGIS | VIYADGERTAYSNAVK | GNMAGTFLF | En_Gibbs |
| 2.16 | 2 of 6 | 0 of 18 | GFDLDEYGIS | VIYADGRRTFYADSVK | GTNAGTFVS | En_HC |
| 2.49 | 4 of 6 | 0 of 18 | GFNLNSYGIS | VIYSDGRRTFYADHVK | GQAAGTFDS | GPLM_Gen |
| no signal | 0 of 6 | 0 of 18 | GFTLESYGIS | VIYADGRRTFYGDPVK | GRAAGTFDS | GP_HC |
| -0.47 | 6 of 6 | 0 of 18 | GFDLNEYGIS | VIYADGRRTAYIDSVK | GNVAGTFDS | En_HC |
| 0.43 | 6 of 6 | 0 of 18 | GFDLNMYGIS | VIYSDGRRKFYGDSVK | GRAAGTFDS | Ctrl |
| 1.31 | 3 of 6 | 0 of 18 | GFTINSYGIS | VIYSDGRRTFYGDKVK | GREAGTFDE | Ctrl |
| -0.19 | 6 of 6 | 0 of 18 | GFDLNEYGIS | VIYADGMRTYYADSVK | GENAGTFDL | En_Gen |
| -0.38 | 6 of 6 | 0 of 18 | GFDLDEYGIS | VIYADGQRTFYADSVK | GQNAGTFDQ | En_HC |
| 3.18 | 1 of 6 | 1 of 18 | KFGLNSYGIS | VIYSDGRRTFYQDSVK | GRTAGTFDS | GP_Gibbs |
| 0.60 | 6 of 6 | 0 of 18 | GFQLNEYGIS | VIYSDGRRTFYGDQVK | GKAAGTFDS | GP_Gen |
| -0.15 | 6 of 6 | 0 of 18 | GFDLNEYGIS | VIYADGRRTAYADSVK | GGNAGTFDQ | En_Gen |
| -0.53 | 6 of 6 | 0 of 18 | GFDLNEYGIS | VIYADGMRTAYADSVK | GQVAGTFDS | En_HC |
| 0.77 | 6 of 6 | 0 of 18 | GFELNDYGIS | VIYSDGRRTFYADSVK | GRAAGTFDE | GP_HC |
| no signal | 0 of 6 | 0 of 18 | LFTLNQYGIS | VIYSDGRRTRYGDEVK | GRAAGWFDS | Ctrl |
| no signal | 0 of 6 | 0 of 18 | GFTLNSYGIQ | VIYSDGRRTFYGDSVK | GRGAGTFDS | Ctrl |
| 0.60 | 6 of 6 | 1 of 18 | GFSLNDYGIS | VIYSDGRRTFYGDPVK | GRTAGTFDS | GPLM_Gen |
| 0.55 | 6 of 6 | 0 of 18 | GFELNEYGIS | VIYSDGRRTFYTDSVK | GKAAGTFDS | GP_Gen |
| 0.04 | 3 of 6 | 0 of 18 | GFQLNDYGIS | VIYSDGRRTFYADHVK | GKAAGTFDS | GP_HC |
| 0.60 | 6 of 6 | 0 of 18 | GFTLNEYGIS | VIYSDGRRTMYGDSVK | GRYAGTFDS | GP_HC |
| -0.47 | 1 of 6 | 0 of 18 | GFDLNEYGIS | VIYADGMRTFYADSVK | GNTAGTFDI | En_Gen |
| no signal | 0 of 6 | 0 of 18 | GFDLNEYGIS | VIYADGRRTAYVQSVK | GKNNMVLSV | En_Gibbs |
| 1.92 | 6 of 6 | 1 of 18 | GFTLNSYGIS | VIYSDGRRTFYGDSVK | GRIAGTFES | Ctrl |
| no signal | 0 of 6 | 0 of 18 | GFTLNSYGIS | VIYSDGRRTSYGDSVK | GRAAATFDS | Ctrl |
| no signal | 0 of 6 | 1 of 18 | GFTLNEYGIS | VIYSDGRRTFYADSVK | GRAAVTFDS | GP_HC |
| no signal | 0 of 6 | 0 of 18 | GFGLNEYGIS | VIYSDGRRTFYNDSVK | GRAALNFDS | Ctrl |
| 2.57 | 3 of 6 | 0 of 18 | GFSLNSYGIS | VIYSDGRRTFYIDSVK | GHAAGTFDN | GP_Gibbs |

The last 9 entries again:

CDR-H1,CDR-H2,CDR-H3,group,"log10 Kd (nM), mean",seen in,empty controls
GFQLNDYGIS,VIYSDGRRTFYADHVK,GKAAGTFDS,GP_HC,0.04,3 of 6,0 of 18
GFTLNEYGIS,VIYSDGRRTMYGDSVK,GRYAGTFDS,GP_HC,0.60,6 of 6,0 of 18
GFDLNEYGIS,VIYADGMRTFYADSVK,GNTAGTFDI,En_Gen,-0.47,1 of 6,0 of 18
GFDLNEYGIS,VIYADGRRTAYVQSVK,GKNNMVLSV,En_Gibbs,no signal,0 of 6,0 of 18
GFTLNSYGIS,VIYSDGRRTFYGDSVK,GRIAGTFES,Ctrl,1.92,6 of 6,1 of 18
GFTLNSYGIS,VIYSDGRRTSYGDSVK,GRAAATFDS,Ctrl,no signal,0 of 6,0 of 18
GFTLNEYGIS,VIYSDGRRTFYADSVK,GRAAVTFDS,GP_HC,no signal,0 of 6,1 of 18
GFGLNEYGIS,VIYSDGRRTFYNDSVK,GRAALNFDS,Ctrl,no signal,0 of 6,0 of 18
GFSLNSYGIS,VIYSDGRRTFYIDSVK,GHAAGTFDN,GP_Gibbs,2.57,3 of 6,0 of 18

The authors averaged sequences with at least three values out of six and counted those with two or fewer as poor binders.
The range of this assay differs from that of the first round, and the authors advise against merging the two.

From the AlphaSeq antibody data of Li et al. 2023 (doi:10.1038/s41467-023-39022-2), copy in the FLAb collection.